According to US4183931A, “2-Ketoalkyl-4(3H)-quinazolinones” (Research Corporation, priority 1977, dated 1980):

What was measured:
[1] = NINCDS Maximal Electroshock Seizure Test (MES); type: in vivo, mice; settings: secondary evaluation
Procedure: (§1) 1. Neurological Activity Tests. […] Compounds were evaluated for anticonvulsant activity in two seizure models, the maximal electroshock seizure (MES) test and the subcutaneous pentylenetetrazol (Metrazol) seizure threshold (scMet) test.
The Maximal Electroshock Seizure Test was performed according to the method described by Swinyard and coworkers,* wherein a drop of 0.9% saline is instilled in each eye prior to application of corneal electrodes. Seizures are elicited with a 50 Hz alternating current of 50 mA (5 to 7 times that necessary to elicit minimal electroshock seizures) delivered for 0.2 sec via corneal electrodes. This stimulus will produce a maximal seizure in all normal mice. The maximal seizure typically consists of a short period of initial tonic flexion and a prolonged period of hind limb tonic extension, followed by terminal clonus. The seizure lasts about 22 seconds. Abolition of the hind limb tonic extensor component of the seizure is defined as protection and indicates anticonvulsant activity in the test compound.
(§2) The ability of a compound to prevent maximal electroshock seizures is believed to correlate with its ability to prevent the spread of seizure discharge through neural tissue. […]
(§3) In the Secondary Evaluation, median effective doses (ED50) are determined in the MES, scMet and Rotorod assays using the procedures defined in Pharmacology, 95, 99-113 (1949). […]

[2] = Neuropharmacological Profile (NPP): general CNS observational screen (depression, righting reflex, ataxia)
Procedure: Representative compounds according to the present invention were tested for central nervous system activity by Pharmakon Laboratories of Scranton, Pennsylvania. The battery of general observational procedures used is referred to herein as a Neuropharmacological Profile (NPP). Additionally, representative compounds were tested in the Anticonvulsant Screening Project of the National Institutes of Neurological and Communicative Disorders and Stroke (NINCDS) at the University of Utah under the direction of Dr. Ewart A. Swinyard.
The procedures for the determination of a neuropharmacological profile involved white male mice of the Carworth Farm Strain CF-1 weighing 18 to 22 grams. […] Intraperitoneal injections were administered in logarithmic progression and sequentially. The dose levels employed routinely were 10, 30, 100 and 300 mg/kg, using four male mice at each dose level. Since this test was conducted in a sequential manner, the first does administered was at 300 mg/kg. […] Approximately thirty-eight signs and symptoms of pharmacological activity can be identified.
The animals were observed continously for one hour and, if no signs of pharmacological or toxicological activity were present at the end of the first hour, they were intermittently checked for activity every fifteen minutes thereafter for two consecutive hours. […] The animals were observed and signs and symptoms of pharmacological activity were recorded continuously until no further symptoms developed and until the symptoms that appeared were no longer present. […] Routinely, the number of animals alive at the end of the forty-eight hour observation period was recorded and the LD50 estimated. […]
Since this is a general CNS screening procedure, only peak effects were recorded. Certain measures of behavior and neurological deficit were scored in terms of intensity of effect, while most others were determined on an all or none basis. […] The compounds were also evaluated for anticonvulsant activity by using the maximal electroshock seizure (MES) test. […]
At the termination of the test, the results were recorded and tabulated. […]

[3] = NINCDS Subcutaneous Pentylenetetrazol (Metrazol) Seizure Threshold Test (scMet); type: in vivo, mice; settings: secondary evaluation
Procedure: as §1
Subcutaneous Pentylenetetrazol (Metrazol) Seizure Threshold Test (scMet) produces threshold (clonic) seizures. Pentylenetetrazol is administered subcutaneously as a threshold 0.5% solution (in 0.9% sodium chloride) in a loose fold of skin on the back of the neck in a dose of 85 mg/kg. […] Metrazol is given 10 minutes before the beginning of the test to allow for the delay in onset of Metrazol action. The animal is observed for 30 minutes. Failure to observe even a threshold seizure (a single episode of clonic spasms at least 5 seconds in duration) is defined as protection and indicates anticonvulsant activity in the test compound. These two methods of seizure provocation reliably elicit well-characterizied seizure phenomena.
as §2, §3

[4] = at 100 mg/kg, i.p., mice, score 0-8

Structure (SMILES): Cc1ccccc1-n1c(C)nc2ccccc2c1=O [methaqualone, 2-methyl-3-o-tolyl-4(3H)-quinazolinone, reference compound]
- PI MES (Protective Index = TD50/ED50) [1]: 1.05
- muscle relaxant properties ([2]; NPP summary): not exhibited
- Ataxia [2, 4]: 8
- Righting reflex [2, 4]: 8
- PI scMet (Protective Index = TD50/ED50) [3]: 1.64
